Test results taken from patent publication US8895585B2, “Nicotinamide derivative or salt thereof” (FUJIFILM Corporation, priority 2010, dated 2014).

Tests used:
[1] = molecular target: glutathione S-transferase (GST)-fused full-length human Syk protein (Homo sapiens, UniProt P43405); experiment: Syk enzyme assay
Description: A glutathione S-transferase (GST)-fused full-length human Syk protein (Carna Biosciences), which had been generated using a Baculovirus expression system, was used in the Syk enzyme assay.
15 μl of a reaction solution (1.2 ng Syk, 20 mM HEPES, 10 mM MgCl2, 50 mM NaCl, 2 mM DTT, 0.05% BSA, pH 7.0) containing a Syk protein and a predetermined concentration of a test compound was shaken for 2 minutes, and it was then left at rest at room temperature for 13 minutes. Thereafter, 5 μl of Biotin-EDPDYEWPSA-NH2 (final concentration: 0.4 μM) serving as a substrate peptide and 5 μl of ATP (final concentration: 27 μM) were added to the reaction solution, and the obtained mixture was then shaken for 2 minutes. The reaction solution was further left at rest at room temperature for 40 minutes, so as to carry out an enzyme reaction.
Thereafter, 50 μl of a reaction termination solution [5 μg/ml Streptavidin, 0.18 μg/ml PT66-K, 30 mM HEPES (pH 7.0), 150 mM KF, 75 mM EDTA, 0.15% BSA, 0.075% Tween20], which contained Streptavidin-Xlent (Cisbio) and Mab PT66-K (Cisbio), was added to the reaction solution to terminate the enzyme reaction. At the same time, the reaction solution was left at rest at room temperature for 1 hour, so as to carry out an antigen-antibody reaction. Thereafter, using EnVision (PerkinElmer), the time-resolved fluorescence was measured at 615 nm and 665 nm, so that the phosphorylation of the substrate peptide was measured.
In addition, the following are standards for evaluating IC50 of Syk-inhibitory activity used in Table 21. • A: Up to 10 nM • B: 10 to 50 nM • C: 50 to 100 nM • D: 100 to 1000 nM The set of numbers (XYZ-xyz) given in each Example number column indicates the corresponding Example number (Example XYZ-xyz) in Table 21.

THP-1 cells = experiment: TNFα generation assay; format: cell-based, human
Description: THP-1 cells (2×10^5 cells/ml), which were human monocytoid cells, were cultured in the presence of 10 ng/ml IFN-γ (Roche) for 2 days, so that the cells were induced to differentiate into macrophage-like cells. The differentiation-induced THP-1 cells were recovered, and the cells (1×10^6 cell/ml) were then allowed to react with a predetermined concentration of test compound at room temperature for 30 minutes. On the other hand, 100 μl of human IgG (10 μg/ml, SIGMA-ALDRICH) diluted with PBS was added to a 96-well plate, and it was then incubated at room temperature overnight. Thereafter, the resultant was washed with PBS twice to produce a human IgG-coated plate. Subsequently, a cell solution that contained a compound was inoculated on the human IgG-coated plate (5×10^4 cells/well), and it was then cultured for 7 hours. Thereafter, the cultured solution was recovered, and the amount of TNFα secreted into the culture solution was then measured by the ELISA method (Roche/R & D Systems) or the AlphaLISA method (PerkinElmer).
In addition, the following are used in Table 22 to denote criteria for evaluating IC50 in TNFα generation assay. • A: Up to 65 nM • B: 65 to 130 nM • C: 130 to 200 nM

[2] = read-out: IC50 of Syk-inhibitory activity, Test Example 1, tested form: HCl
[3] = read-out: IC50 in TNFα generation assay, Table 22, tested form: HCl
[4] = read-out: IC50 of Syk-inhibitory activity, Test Example 1
[5] = read-out: IC50 in TNFα generation assay, Table 22

SMILES | IC50 [1, 2] [µM] | IC50 [1, 4] [µM] | also measured
NC(=O)c1cc(Cl)c(N[C@@H]2CCCC[C@@H]2N)nc1Nc1cccc(-n2nccn2)c1 |  | < 0.01 | IC50 (THP-1 cells; [5]): 0.13 to 0.2 µM
NCCNc1nc(Nc2ccc3ncsc3c2)c(C(N)=O)cc1F [Example 6-44, 6-(2-aminoethylamino)-2-((benzo[d]thiazol-6-yl)amino)-5-fluoro-nicotinamide] |  |  | IC50 ([1]; read-out: IC50 of Syk-inhibitory activity, Test Example 1, tested form: TFA salt): 0.01 to 0.05 µM; IC50 (THP-1 cells; read-out: IC50 in TNFα generation assay, Table 22, tested form: TFA salt): < 0.065 µM
NCCNc1nc(Nc2ccc3ncccc3c2)c(C(N)=O)cc1F [Example 6-26, 6-((2-aminoethyl)amino)-5-fluoro-2-(quinolin-6-ylamino)nicotinamide] | < 0.01 |  | IC50 (THP-1 cells; [3]): < 0.065 µM
NCCNc1nc(Nc2cnc3ccccc3c2)c(C(N)=O)cc1F [Example 8-11, 6-(2-aminoethylamino)-5-fluoro-2-(quinolin-3-ylamino)nicotinamide] | 0.01 to 0.05 |  | IC50 (THP-1 cells; [3]): 0.065 to 0.13 µM
Cc1cncc(Nc2nc(N[C@@H]3CCCC[C@@H]3N)c(Cl)cc2C(N)=O)c1 (relative stereo) | < 0.01 |  | IC50 (THP-1 cells; [3]): 0.065 to 0.13 µM
NCCNc1nc(Nc2cncc3ccccc23)c(C(N)=O)cc1F |  | 0.01 to 0.05 | IC50 (THP-1 cells; [5]): 0.065 to 0.13 µM
NCCNc1nc(Nc2cccc3ncccc23)c(C(N)=O)cc1F |  | 0.01 to 0.05 | IC50 (THP-1 cells; [5]): 0.065 to 0.13 µM
NC(=O)c1cc(F)c(N[C@H]2CCNC2)nc1Nc1ccc2ncccc2c1 |  | 0.1 to 1 | 
NC(=O)c1cc(F)c(N[C@@H]2CCCC[C@@H]2N)nc1Nc1cccc2nsnc12 (relative stereo) | < 0.01 |  | 
CNC(=O)c1cccc(Nc2nc(NCCN)c(F)cc2C(N)=O)c1 |  | 0.1 to 1 | 
NCCNc1nc(Nc2ccc(Cl)c(Cl)c2)c(C(N)=O)cc1F |  | 0.1 to 1 | 
CC(C)C[C@H](N)CNc1nc(Nc2ccc3ncccc3c2)c(C(N)=O)cc1F [Example 14-10, 6-(((2S)-2-amino-4-methylpentyl)amino)-5-fluoro-2-(quinolin-6-ylamino)nicotinamide] | 0.01 to 0.05 |  | IC50 (THP-1 cells; [3]): 0.065 to 0.13 µM
NC(=O)c1cc(F)c(N[C@@H]2CCCC[C@@H]2N)nc1Nc1cnccc1-c1ccccc1 |  | 0.1 to 1 | 
COc1cccc(Nc2nc(N[C@@H]3CCCC[C@@H]3N)c(Cl)cc2C(N)=O)c1 (relative stereo) | < 0.01 |  | IC50 (THP-1 cells; [3]): 0.065 to 0.13 µM
NCCNc1nc(Nc2cccnc2)c(C(N)=O)cc1F |  | 0.1 to 1 | 
COc1cc(Nc2nc(N[C@@H]3CCCC[C@@H]3N)c(F)cc2C(N)=O)cc(-c2ccccc2)n1 (relative stereo) | < 0.01 |  | 
Cc1ccc(Nc2nc(NCCN)c(F)cc2C(N)=O)cc1 |  | 0.1 to 1 | 
CC(=O)c1cccc(Nc2nc(NCCN)c(F)cc2C(N)=O)c1 |  | 0.01 to 0.05 | 
CCCCOc1cc(Nc2nc(N[C@@H]3CCCC[C@@H]3N)c(F)cc2C(N)=O)ccn1 |  |  | IC50 ([1]; read-out: IC50 of Syk-inhibitory activity, Test Example 1, tested form: hydrochloride): < 0.01 µM
NC(=O)c1cc(F)c(N[C@H](C(N)=O)c2ccccc2)nc1Nc1ccc2ncsc2c1 |  | 0.1 to 1 | 
COc1cc(Nc2nc(NC(C(N)=O)C(C)C)c(F)cc2C(N)=O)cc(OC)c1 (stereo not shown) [Example 32, 6-(1-aminocarbonyl-2-methylpropylamino)-2-(3,5-dimethoxyphenylamino)-5-fluoro nicotinamide] |  | 0.05 to 0.1 | 
NCCNc1nc(Nc2cc(C(F)(F)F)cc(C(F)(F)F)c2)c(C(N)=O)cc1F |  | 0.1 to 1 | 
Cn1ncc2ccc(Nc3nc(NCCN)c(F)cc3C(N)=O)cc21 [Example 6-27, 6-((2-aminoethyl)amino)-5-fluoro-2-((1-methyl-1H-indazol-6-yl)amino)nicotinamide] | 0.1 to 1 |  | 

Second part, led by results:

IC50 [1, 2] [µM] | IC50 [1, 4] [µM] | SMILES | also measured
< 0.01 |  | Cn1ncc2c(Nc3nc(N[C@@H]4CCCC[C@@H]4N)c(F)cc3C(N)=O)cccc21 (relative stereo) | IC50 (THP-1 cells; [3]): < 0.065 µM
 | < 0.01 | NC(=O)c1cc(F)c(N[C@@H]2CCCC[C@@H]2N)nc1Nc1ccc2nccnc2c1 (relative stereo) | IC50 (THP-1 cells; [5]): < 0.065 µM
< 0.01 |  | Cn1cnc2cc(Nc3nc(N[C@@H]4CCCC[C@@H]4N)c(F)cc3C(N)=O)ccc21 (relative stereo) | IC50 (THP-1 cells; [3]): 0.065 to 0.13 µM
 | < 0.01 | NC(=O)c1cc(F)c(N[C@@H]2CCCC[C@@H]2N)nc1Nc1ccnc(N2CCOCC2)c1 | IC50 (THP-1 cells; [5]): 0.13 to 0.2 µM
< 0.01 |  | Cn1ncc2ccc(Nc3nc(N[C@@H]4CCCC[C@@H]4N)c(F)cc3C(N)=O)cc21 (relative stereo) | IC50 (THP-1 cells; [3]): < 0.065 µM
< 0.01 |  | Cc1cnc2cc(Nc3nc(N[C@@H]4CCCC[C@@H]4N)c(F)cc3C(N)=O)ccc2n1 (relative stereo) | IC50 (THP-1 cells; [3]): < 0.065 µM
< 0.01 |  | NC(=O)c1cc(F)c(N[C@@H]2CCCC[C@@H]2N)nc1Nc1ccc2nn(CCN3CCCC3)cc2c1 (relative stereo) | IC50 (THP-1 cells; [3]): 0.065 to 0.13 µM
< 0.01 |  | NC(=O)c1cc(F)c(N[C@@H]2CCCC[C@@H]2N)nc1Nc1ccc2ncsc2c1 (relative stereo) | IC50 (THP-1 cells; [3]): < 0.065 µM
 | < 0.01 | NC(=O)c1cc(F)c(N[C@@H]2CCCC[C@@H]2N)nc1Nc1ccc2c(cnn2CCN2CCOCC2)c1 | IC50 (THP-1 cells; [5]): 0.13 to 0.2 µM
 | 0.01 to 0.05 | NC(=O)c1cc(F)c(N[C@@H]2CCCC[C@@H]2N)nc1Nc1ccc2c(c1)OCCO2 (relative stereo) | IC50 (THP-1 cells; [5]): 0.065 to 0.13 µM
 | < 0.01 | NC(=O)c1cc(F)c(N[C@@H]2CCCC[C@@H]2N)nc1Nc1ccc2scnc2c1 (relative stereo) | IC50 (THP-1 cells; [5]): < 0.065 µM
< 0.01 |  | Cc1ccc2cc(Nc3nc(N[C@@H]4CCCC[C@@H]4N)c(F)cc3C(N)=O)ccc2n1 (relative stereo) | IC50 (THP-1 cells; [3]): 0.065 to 0.13 µM
0.05 to 0.1 |  | NC(=O)c1cc(F)c(N[C@@H]2CCCC[C@@H]2N)nc1Nc1ccc(N2CCCCC2)nc1 (relative stereo) | 
< 0.01 |  | NC(=O)c1cc(F)c(N[C@@H]2CCCC[C@@H]2N)nc1Nc1ccc2c(cnn2CCN2CCCC2)c1 (relative stereo) | IC50 (THP-1 cells; [3]): 0.065 to 0.13 µM
 | < 0.01 | Cn1cnc2ccc(Nc3nc(N[C@@H]4CCCC[C@@H]4N)c(F)cc3C(N)=O)cc21 (relative stereo) | IC50 (THP-1 cells; [5]): < 0.065 µM
< 0.01 |  | NC(=O)c1cc(F)c(N[C@H]2CCCC[C@H]2N)nc1Nc1ccc(Cl)c(Cl)c1 (relative stereo) | 
 | 0.05 to 0.1 | COc1ccc(Nc2nc(N[C@@H]3CCCC[C@@H]3N)c(F)cc2C(N)=O)cn1 (relative stereo) [Example 2-10, 6-(cis-2-aminocyclohexylamino)-5-fluoro-2-((6-methoxypyridin-3-yl)amino)nicotinamide] | 
 | < 0.01 | NC(=O)c1cc(F)c(N[C@@H]2CCCC[C@@H]2N)nc1Nc1ccc2cnn(CCN3CCOCC3)c2c1 | 
 | < 0.01 | COc1ccc2ncc(Nc3nc(N[C@@H]4CCCC[C@@H]4N)c(F)cc3C(N)=O)cc2c1 (relative stereo) | IC50 (THP-1 cells; [5]): < 0.065 µM
 | < 0.01 | COc1cc(Nc2nc(N[C@@H]3CCCC[C@@H]3N)c(F)cc2C(N)=O)ccn1 | IC50 (THP-1 cells; [5]): 0.065 to 0.13 µM
0.01 to 0.05 |  | NC(=O)c1cc(F)c(N[C@@H]2CCCC[C@@H]2N)nc1Nc1ccc2cccnc2c1 (relative stereo) | IC50 (THP-1 cells; [3]): < 0.065 µM
< 0.01 |  | NC(=O)c1cc(F)c(N[C@@H]2CCCC[C@@H]2N)nc1Nc1cc(-c2ccccc2)nc(N2CCOCC2)c1 (relative stereo) | 
 | 0.01 to 0.05 | NC(=O)c1cc(F)c(N[C@@H]2CCCC[C@@H]2N)nc1Nc1ccc2nn(CC3CC3)cc2c1 (relative stereo) | 
 | < 0.01 | NC(=O)c1cc(F)c(N[C@@H]2CCCC[C@@H]2N)nc1Nc1ccc2cncnc2c1 (relative stereo) | IC50 (THP-1 cells; [5]): < 0.065 µM
 | < 0.01 | NC(=O)c1cc(F)c(N[C@@H]2CCCC[C@@H]2N)nc1Nc1ccc2cn(CCN3CCCC3)nc2c1 | 
 | < 0.01 | NC(=O)c1cc(F)c(N[C@@H]2CCCC[C@@H]2N)nc1Nc1ccc2cnn(CCN3CCCC3)c2c1 | 

Read-outs that look alike come from different tables or passages of the source.
